The target of this experiment is T1, casein kinase 1ε (Homo sapiens, UniProt P49674).
T1 construct: made in house
The experiment is described as follows: Casein Kinase Epsilon 33P-ATP Filter Plate Assay for Screening CK1ε Inhibitors. In kind it is biochemical. As to conditions: for Ki: phosphorylation of dephosphorylated casein, five concentrations in duplicate, 10 μM cold ATP, room temperature 2 hours, read-out: Casein Kinase Iε 33P-ATP Filter Plate Assay Ki (μM) (*denotes average of 2 or more determinations).

Chains of the proteins cited; added tags and fusions are not shown. Lines headed by an entry give the natural chain unless they say otherwise; changes in a name come on top.
UniProt P49674: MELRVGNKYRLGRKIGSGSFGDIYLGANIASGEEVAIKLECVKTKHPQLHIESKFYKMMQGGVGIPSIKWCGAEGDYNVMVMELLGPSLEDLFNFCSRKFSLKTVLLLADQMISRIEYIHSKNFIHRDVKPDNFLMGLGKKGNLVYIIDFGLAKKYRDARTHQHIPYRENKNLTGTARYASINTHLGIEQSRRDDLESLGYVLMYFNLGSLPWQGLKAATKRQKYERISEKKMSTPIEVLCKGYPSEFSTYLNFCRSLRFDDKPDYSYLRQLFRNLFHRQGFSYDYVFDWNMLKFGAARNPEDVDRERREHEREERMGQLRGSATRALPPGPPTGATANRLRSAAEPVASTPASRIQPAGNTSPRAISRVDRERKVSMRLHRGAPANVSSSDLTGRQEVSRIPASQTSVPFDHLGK

Among the data in patent publication US7629376B2, “3-substituted-5- and 6-aminoalkyl indole-2-carboxylic acid amides and related analogs as inhibitors of casein kinase I” (Aventis Pharmaceuticals Inc., priority 2004, dated 2009) are Ki values, retold here.

pKi: −log10 of the molar value. Read-outs that look alike come from different tables or passages of the source.

The term Ki denotes a dissociation constant, usually derived from enzyme kinetics or from competition with a known ligand. Take “3-(3-Chlorophenylsulfanyl)-5-methylaminomethyl-1H-indole-2-carboxylic acid amide”: the Ki was 0.14 µM. With “3-(3-Fluorophenylsulfanyl)-5-methylaminomethyl-1H-indole-2-carboxylic acid amide [Ie]”, the Ki is 0.34 µM. For orientation: pKi means −log10 of the Ki, conventionally taken in molar units. Lower therefore signals a high Ki. Turning to `COc1cc(C=CCNCc2ccc3c(Sc4ccccc4)c(C(N)=O)[nH]c3c2)ccc1O` [IIaq, 6-{[3-(4-Hydroxy-3-methoxyphenyl)allylamino]methyl}-3-phenylsulfanyl-1H-indole-2-carboxylic acid amide], the pKi is 6.85. For `CNCc1ccc2[nH]c(C(N)=O)c(Sc3ccccc3)c2c1` [Ic, 5-Methylaminomethyl-3-phenylsulfanyl-1H-indole-2-carboxylic acid amide], the negative-log Ki (pKi) was 6.85.

On to `NC(=O)c1[nH]c2ccc(CNCC(O)CO)cc2c1Sc1ccccc1` (centres unmarked) [Iy, 5-[(2,3-Dihydroxypropylamino)methyl]-3-phenylsulfanyl-1H-indole-2-carboxylic acid amide], for which the pKi is 6.47. This pKi lies 0.38 log units lower than the previous one.
